Measured values: ChEMBL document CHEMBL1681744, “1-((3S,4S)-4-amino-1-(4-substituted-1,3,5-triazin-2-yl) pyrrolidin-3-yl)-5,5-difluoropiperidin-2-one inhibitors of DPP-4 for the treatment of type 2 diabetes” (Bioorg Med Chem Lett, 2011)

Key:
Dipeptidyl peptidase 2 = Dipeptidyl peptidase 2 (Homo sapiens, UniProt Q9UHL4); assay: Inhibition of DPP2
Prolyl endopeptidase FAP = target: T1, Prolyl endopeptidase FAP (Homo sapiens, UniProt Q12884); assay: Inhibition of FAP
T1 sequence (Q12884 whole entry): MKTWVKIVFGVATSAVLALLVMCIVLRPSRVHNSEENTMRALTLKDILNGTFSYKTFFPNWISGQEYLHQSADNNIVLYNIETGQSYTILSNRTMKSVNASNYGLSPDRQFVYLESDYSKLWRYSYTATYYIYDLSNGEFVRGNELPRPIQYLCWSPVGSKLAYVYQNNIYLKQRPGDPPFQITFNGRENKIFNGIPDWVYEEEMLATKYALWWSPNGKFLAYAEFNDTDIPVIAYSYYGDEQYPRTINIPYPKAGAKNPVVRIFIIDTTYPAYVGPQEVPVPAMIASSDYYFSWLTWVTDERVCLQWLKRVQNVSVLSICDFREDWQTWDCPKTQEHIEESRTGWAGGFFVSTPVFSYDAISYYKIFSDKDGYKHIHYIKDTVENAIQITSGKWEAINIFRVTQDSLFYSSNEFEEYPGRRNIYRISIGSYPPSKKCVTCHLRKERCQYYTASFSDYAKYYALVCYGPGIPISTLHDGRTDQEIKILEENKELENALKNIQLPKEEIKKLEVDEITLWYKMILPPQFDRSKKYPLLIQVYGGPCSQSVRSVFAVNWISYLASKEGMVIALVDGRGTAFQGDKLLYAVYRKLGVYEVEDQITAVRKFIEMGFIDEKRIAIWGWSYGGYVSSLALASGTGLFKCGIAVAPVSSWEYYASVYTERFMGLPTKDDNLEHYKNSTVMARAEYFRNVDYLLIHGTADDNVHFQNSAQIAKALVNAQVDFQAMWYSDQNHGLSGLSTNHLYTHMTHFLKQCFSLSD

Prolyl endopeptidase = target: T2, Prolyl endopeptidase (Homo sapiens, UniProt P48147); assay: Inhibition of POP
T2 sequence (P48147 whole entry): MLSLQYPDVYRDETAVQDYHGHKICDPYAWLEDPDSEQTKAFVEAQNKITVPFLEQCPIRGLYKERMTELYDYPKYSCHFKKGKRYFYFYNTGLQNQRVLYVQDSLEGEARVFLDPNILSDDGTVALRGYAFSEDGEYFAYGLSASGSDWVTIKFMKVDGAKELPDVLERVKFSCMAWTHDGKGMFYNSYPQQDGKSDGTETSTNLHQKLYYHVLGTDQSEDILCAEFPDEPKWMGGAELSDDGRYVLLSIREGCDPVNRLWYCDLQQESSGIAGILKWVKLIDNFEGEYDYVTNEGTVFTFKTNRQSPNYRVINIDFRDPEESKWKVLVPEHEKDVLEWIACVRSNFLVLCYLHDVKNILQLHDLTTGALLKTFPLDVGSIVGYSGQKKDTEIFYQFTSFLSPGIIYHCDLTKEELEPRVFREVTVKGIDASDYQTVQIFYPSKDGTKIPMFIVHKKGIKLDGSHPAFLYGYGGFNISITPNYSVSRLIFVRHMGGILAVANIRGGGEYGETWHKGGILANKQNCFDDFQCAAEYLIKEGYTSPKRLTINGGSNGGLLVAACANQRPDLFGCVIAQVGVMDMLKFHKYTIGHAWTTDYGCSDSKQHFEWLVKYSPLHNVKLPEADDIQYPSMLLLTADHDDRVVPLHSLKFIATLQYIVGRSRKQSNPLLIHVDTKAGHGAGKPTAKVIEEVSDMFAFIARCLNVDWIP

- Ki (Dipeptidyl peptidase 2): > 30 µM
- Ki (Prolyl endopeptidase FAP): > 30 µM
- Ki (Prolyl endopeptidase): > 30 µM
SMILES: N[C@H]1CN(c2ncnc(N3CCC(F)(F)C3)n2)C[C@@H]1N1CC(F)(F)CCC1=O
